Screening data (PubChem BioAssay)
miR-21 reporter: miR-21 reporter, rising signal; 340,000 tested, under 10 active; Potency, µM (highest dose often 38.3 µM), for the others: top-dose reporter change, positive = more light; HeLa miR-21 FLuc reporter, luciferase, 48 h; active = well fitted rising curve with a large enough effect; inconclusive = small, poorly fitted or top-dose-only effect; inactive = no such curve, though single readings can be large or run the other way;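 further: % of control where 0% means no effect; miR-21 action dims this reporter so a rising signal means less miR-21 action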
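HeLa cells endogenously expressing miR-21, stably carrying CMV-driven firefly luciferase with a downstream miR-21 binding site, 2000 cells/well. Titrations up to approximately 40 uM, 48 hours; luciferase luminescence read.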
TCR activator: activators of T cell receptors | 330,000 tested, under 10 active | Potency, µM (doses to about 9.22 µM), for the others: at the highest dose activation of IL-2 secretion, actives largely listed as activators | primary human leukocytes, anti-CD3, IL-2 HTRF, 48 h; note: % of control where 0% means no effect
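48 hr co-incubation of compounds, a-CD3 beads and primary human leukocytes; IL-2 quantified homogeneously by HTRF with anti-IL-2 K and d2 conjugates.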
A549 tox: kills or reduces viability of A549 cells in Nrf2 counter-screen | A549 ARE-Fluc cells, CellTiter-Fluor viability, 18-24 h | Potency, µM (top dose mostly 46 µM), for the others: at the highest dose activity change, negative = cytotoxicity, hits mostly inhibitors | 390,000 compounds, 0.16% hits | AID 504648; note: potency is the fitted concentration of half-maximal effect; % is set by controls: 0 for no effect and ±100 for the full control effect
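A549 ARE_Fluc cells in 5% FBS OPTI-MEM were exposed to compounds in concentration-response for 18-24 h at 37 deg C. Viability was read by CellTiter-Fluor fluorescence (Ex 405/Em 525) after 30 min, before the luciferase read.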
Nrf2 block: blocks Nrf2 signaling | Potency, µM (titrated, usually from 46 µM), for the others: at the top dose activity change, negative = inhibition, hits mostly inhibitors | A549 ARE-Fluc reporter, luciferase luminescence, 18-24 h | 360,000 compounds, 2.1% hits; note: potency is the fitted concentration of half-maximal effect; % is set by controls: 0 for no effect and ±100 for the full control effect; nearly all actives have a fitted effect of over 60% in size
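Two sequential reads on A549 ARE_Fluc cells exposed to compound for 18-24 h: a CellTiter-Fluor fluorescence read for viability, then a luciferase luminescence read for Nrf2/ARE activity.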
Nrf2 ARE act: activates Nrf2 signaling; Potency, µM (series often up to 46.1 µM), inactives show top-dose activation, usual class: activators; 410,000 compounds, 0.31% hits; AREc32 ARE-luciferase reporter (MCF7-derived line), luminescence, 24 h; note: potency is the fitted concentration of half-maximal effect; % of control where 0% means no effect; nearly all actives have a fitted effect of over 65% in size
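Reporter line AREc32 (ARE-Fluc), seeded overnight in OPTI-MEM with 5% FBS; compound pin-transferred, 24 hr at 37 deg C, 5% CO2; luminescent read-out.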
ClpP mod: qHTS Assay for Activators of ClpP; Potency, µM (highest dose often 57.5 µM), without a hit: at the top dose activity change, negative = active; 340,000 compounds, 1.9% hits; ATP-dependent Clp protease proteolytic subunit (Bacillus subtilis (strain 168)), P80244; purified B. subtilis ClpP, FRET peptide cleavage, 20 min; active = well fitted falling curve with a large enough effect; inconclusive = small, poorly fitted or top-dose-only effect; inactive = no such curve, though single readings can be large or run the other way; note: potency is the fitted concentration of half-maximal effect; the source files actives as falling curves though it sought activators and does not explain the sign; nearly all actives have a fitted effect of over 65% in size
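FRET quenching reversal measured ClpP activation: 10 microg/mL B. subtilis ClpP at pH 8 with the FRET-FV decapeptide, read at 430 nm after 320 nm excitation. The 20-min minus 0-min signal was scaled between DMSO/no-enzyme wells and ADEP (5.8 microM final).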
An asterisk follows results filed as active; ? = inconclusive; nt = no result given; [ ] = another dose, or the depositor's remark. An excerpt weighted towards active compounds, which were near 3.7% of everything screened. Unless noted, calls come from the whole dose curve; as a rule, active = well fitted curve in the direction sought with a large enough effect; inconclusive = small, poorly fitted or top-dose-only effect, or another doubt; inactive = no such curve, though single readings can be large; an effect the other way counts as inactive or inconclusive.

SMILES	miR-21 reporter	TCR activator	A549 tox	Nrf2 block	Nrf2 ARE act	ClpP mod
Nc1ccc(C#Cc2ccc3c(=O)c4ccccc4oc3c2)cc1	-43%	5%	-8%	10µM*	3%	-3%
COc1cc2oc3ccc(C#Cc4ccc(N)cc4)cc3c(=O)c2cc1OC	nt	4%	-12%	15µM*	5%	-7%
COc1ccc(N2CCN(CCCNC(=O)c3ccc4nc(Cc5ccccc5)oc4c3)CC2)cc1	?	nt	-22%	nt	-1%	-3%
CC(=O)Nc1cc(O)c2nonc2c1O	nt	nt	6.5µM*	21µM*	nt	-9%
COc1ccc(N2C(=O)CC(C)(C)CC2=O)cc1OC	2%	-1%	-5%	7%	0%	1%
Cc1cccc(NC(=S)/N=C(\N)Nc2nc(C)c3ccc(C)cc3n2)c1	22%	-6%	?	15µM*	4%	1%
COCCNC(=S)N/N=C(\C)c1ccc(O)cc1	-7%	6%[46.1 µM]	-8%	8%	0%	0%
C/C(=N\NC(=S)NCC(C)(C)C)c1cc(F)cc(F)c1O	-5%	-4%	?	23µM*	10µM*	nt
NC(=S)n1[nH]c(-c2ccc([N+](=O)[O-])cc2)c(N=Nc2ccc(O)cc2)c1=O	-4%	nt	-10%	?	3%	-2%
NC(=S)n1[nH]c(-c2ccc([N+](=O)[O-])cc2)c(N=Nc2cccc(Cl)c2)c1=O	4%	-3%	?	18µM*	1%	nt

Some entries already given, reduced to ClpP mod and miR-21 reporter.
| canonical_smiles | ClpP mod | miR-21 reporter |
| --- | --- | --- |
| Nc1ccc(C#Cc2ccc3c(=O)c4ccccc4oc3c2)cc1 | -3% | -43% |
| COc1cc2oc3ccc(C#Cc4ccc(N)cc4)cc3c(=O)c2cc1OC | -7% | nt |

Further structures
SMILES	miR-21 reporter	TCR activator	A549 tox	Nrf2 block	Nrf2 ARE act	ClpP mod
N#Cc1c(NC(=O)c2cc3nc(-c4ccc(Br)cc4)cc(C(F)(F)F)n3n2)sc2c1CCCC2	0%	nt	7%	nt	0%	4%
Cn1c(=O)c2sccc2n2c(CCC(=O)N3CCN(c4cccc(Cl)c4)CC3)nnc12	-8%	nt	-1%	-29%	-1%	2%
COc1ccccc1N1C(=O)N(C(C)=O)C2C1Nc1ccccc1N2C (configuration not stated)	0%	4%	12µM*	?	-3%	-5%
COc1ccccc1NC(=O)N1c2ccccc2NC(=O)CC1C (configuration not stated)	-3%	4%	3%	5%	0%	-2%
Cn1cnnc1SCC(=O)Nc1ccc2ccccc2c1	nt	0%	7%	4%	-1%	-4%
CCCCN(Cc1cc2cc(OC)ccc2[nH]c1=O)C(=O)c1ccco1	-3%	0%	-2%	nt	1%	32µM*
CCCN(Cc1cc2cc(OC)ccc2[nH]c1=O)C(=O)c1ccco1	3%	6%	2%	-3%	3%	nt
CCCCN(Cc1cc2cc(OC)ccc2[nH]c1=O)C(=O)c1ccccn1	-5%	-7%	0%	?	0%	20µM*
COc1ccc(Cl)cc1-n1c(C)cc(C(=O)O)c1C	-8%	6%	9%	-18%	-1%	1%
COc1ccc(Cl)cc1-n1c(C)cc(C=O)c1C	0%	2%	-13%	nt	-1%	32µM*
O=C(NN=Cc1c(O)ccc2ccccc12)c1ccncc1	nt	5%	?	26µM*	0%	-1%
Nc1nonc1N/N=C/c1c(O)ccc2ccccc12	-1%	nt	7%	23%	7.9µM*	nt
Cc1ccc(Cl)cc1N1CCN(C(=O)c2cc3c(-c4ccccc4F)nn(C)c3s2)CC1	-2%	nt	-1%	5%	1%	-9%
O=S1(=O)N=C(Oc2ccc3ccccc3c2)c2ccccc21	nt	nt	-6%	1%	nt	nt
Cc1c(P(=S)(c2ccccc2)c2ccccc2)c2ccccc2n1C(=O)NCc1ccccc1	nt	nt	-2%	-14%	nt	nt
CC(=O)Nc1ccc(S(=O)(=O)NCCSCc2c(Cl)cccc2Cl)cc1	15%	0%	-21%	15µM*	0%	-1%
O=C(c1ccccc1-c1nc2ccccc2[nH]1)N1CCCCC1	-6%	-3%	0%	nt	0%	28µM*
O=C(CSc1ccccc1)NCc1ccc2c(c1)CCN2C(=O)c1ccc(Cl)cc1	?	nt	-17%	nt	5%	-2%
CC(Oc1ccc(Cl)cc1Cl)c1nc(-c2ccc(NC(=O)c3ccncc3)cc2)no1 (configuration not stated)	16%	-4%[46.1 µM]	-1%	10µM*	0%	-2%
COC(=O)CCC(=O)Nc1ccc(S(=O)(=O)Nc2nc(C)cc(C)n2)cc1	0%	nt	1%	-1%	0%	2%
COc1ccc(C(=O)COC(=O)c2cc(=O)c3ccccc3o2)c(OC)c1	nt	nt	nt	nt	?	-3%
Clc1ccc(CN(CC2CCCO2)C(c2cccs2)c2nnnn2C2CCCC2)cc1 (configuration not stated)	-2%	-3%	-26%	12µM*	0%	-1%
COC(=O)c1ccc(NC(=O)COC(=O)COc2cccc3c2OC(C)(C)C3)cc1	nt	12%	2%	8%	0%	-3%
Cc1nc([N+](=O)[O-])cn1CC(O)c1ccc2c(c1)OCCO2 (configuration not stated)	nt	nt	nt	nt	nt	-1%
COc1cc(C(=O)OCC(=O)Nc2cccc(S(=O)(=O)N3CCOCC3)c2)ccc1OCC(C)C	nt	1%	-17%	0%	0%	-1%
Cc1ccc(-c2cc3c(n2-c2ccc(F)cc2)CC(C)(C)CC3=O)cc1	0%	nt	-3%	10%	0%	-12%
CC1(C)CC(=O)c2cc(-c3nc(-c4ccc(Cl)cc4)cs3)c(=O)n(-c3ccc(F)cc3)c2C1	-2%	nt	-2%	-13%	-1%	40µM*
COc1ccc(-c2ccc(SCC(=O)N3CC(=O)Nc4ccccc43)nn2)cc1	-21%	-7%	-5%	?	0%	nt
CC1(C)C=C(c2ccc(C=O)s2)CC(C)(C)N1C=O	-7%	-2%	-2%	-18%	0%	22µM*
Cc1cc(C)n2nc(SCC(=O)N(Cc3ccccc3)C3CCS(=O)(=O)C3)nc2n1 (configuration not stated)	-4%	-1%	8%	5%	-1%	nt
Cc1cccc(Nc2nnc(SCC(=O)N(C)C3CCS(=O)(=O)C3)s2)c1C (configuration not stated)	-4%	2%[46.1 µM]	11%	7%	0%	1%
CCN(C(=O)CSc1nc2nc(C)cc(C)n2n1)C1CCS(=O)(=O)C1 (configuration not stated)	1%	nt	-5%	1%	0%	16µM*
CCN(C(=O)CSc1nnc(Nc2ccccc2C)s1)C1CCS(=O)(=O)C1 (configuration not stated)	-5%	-9%[46.1 µM]	0%	8%	-2%	28µM*
N#C/C(=C\c1ccc(-c2ccc(C(=O)O)cc2)o1)C(=O)Nc1ccccc1C(=O)O	1%	nt	-4%	-10%	0%	5%

Reformatted: 5 of the compounds above
Each structure is followed by: miR-21 reporter, TCR activator, A549 tox, Nrf2 block, Nrf2 ARE act, ClpP mod
COc1ccc(Cl)cc1-n1c(C)cc(C=O)c1C
  0%, 2%, -13%, nt, -1%, 32µM*
N#C/C(=C\c1ccc(-c2ccc(C(=O)O)cc2)o1)C(=O)Nc1ccccc1C(=O)O
  1%, nt, -4%, -10%, 0%, 5%
COc1ccc(C(=O)COC(=O)c2cc(=O)c3ccccc3o2)c(OC)c1
  nt, nt, nt, nt, ?, -3%
O=C(NN=Cc1c(O)ccc2ccccc12)c1ccncc1
  nt, 5%, ?, 26µM*, 0%, -1%
COc1ccc(-c2ccc(SCC(=O)N3CC(=O)Nc4ccccc43)nn2)cc1
  -21%, -7%, -5%, ?, 0%, nt
